Values quoted from earlier work as cited in patent US9951115B2, “CGRP agonist peptides” (priority 2013, dated 2018).

Conditions: native CGRP, background statement; cited from earlier work

Native CGRP: calcitonin gene-related peptide, a 37 amino acid vasoactive neuropeptide
half-life: less than 30 minutes
